Protein sequences, listed by entry. Tags and fused reporters are not part of them.
UniProt P23975, whole entry: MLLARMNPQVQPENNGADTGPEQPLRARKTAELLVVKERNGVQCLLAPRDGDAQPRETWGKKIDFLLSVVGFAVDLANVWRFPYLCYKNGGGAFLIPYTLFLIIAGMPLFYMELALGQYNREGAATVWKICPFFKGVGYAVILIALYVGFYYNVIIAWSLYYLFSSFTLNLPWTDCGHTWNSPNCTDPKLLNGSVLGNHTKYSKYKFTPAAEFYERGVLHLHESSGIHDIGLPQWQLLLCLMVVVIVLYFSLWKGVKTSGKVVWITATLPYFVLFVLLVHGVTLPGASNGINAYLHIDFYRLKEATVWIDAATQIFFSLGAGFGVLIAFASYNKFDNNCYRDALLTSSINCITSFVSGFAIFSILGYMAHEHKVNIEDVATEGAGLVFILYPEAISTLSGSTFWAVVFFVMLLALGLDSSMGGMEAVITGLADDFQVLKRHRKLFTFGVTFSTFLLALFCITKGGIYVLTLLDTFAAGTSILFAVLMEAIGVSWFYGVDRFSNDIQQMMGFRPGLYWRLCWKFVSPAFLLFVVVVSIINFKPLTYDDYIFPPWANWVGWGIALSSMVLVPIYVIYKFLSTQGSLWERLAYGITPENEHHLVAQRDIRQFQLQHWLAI

In patent publication US7507717B2 (Xenome Ltd., priority 2002, dated 2009):

Legend:
[1] = molecular target: T1, human noradrenaline transporter (hNET) (Homo sapiens, UniProt P23975); assay: biochemical; assay type: binding; conditions: Av IC50 Displacement of 3H-nisoxetine from hNET
T1 construct: expressed in transfected cells; host or cells: COS-7 cells (ATCC), transient transfection with metafectene

[2] = molecular target: T1, human noradrenaline transporter (hNET); assay: cell-based

Row | Compound | pIC50 [1] | pIC50 [2]
1 | CC(C)C[C@@H]1NC(=O)[C@H](CCCCN)NC(=O)[C@H](Cc2ccc(O)cc2)NC(=O)CNC(=O)[C@@H]2CSSC[C@H](NC1=O)C(=O)N[C@@H](Cc1c[nH]c3ccccc13)C(=O)N1C[C@H](O)C[C@H]1C(=O)N[C@H](C(N)=O)CSSC[C@H](NC(=O)[C@@H](NC(=O)CNC(=O)[C@H](CC(N)=O)NC(=O)[C@@H](N)Cc1ccc(O)cc1)C(C)C)C(=O)N2 [compound 71] | 6.64 | 7.42
2 | CC(C)C[C@H](NC(=O)CNC(=O)[C@H](CC(N)=O)NC(=O)[C@@H](N)Cc1c[nH]c2ccccc12)C(=O)N[C@H]1CSSC[C@@H](C(N)=O)NC(=O)[C@@H]2C[C@@H](O)CN2C(=O)[C@H](Cc2c[nH]cn2)NC(=O)[C@@H]2CSSC[C@H](NC1=O)C(=O)NCC(=O)N[C@@H](Cc1ccc(O)cc1)C(=O)N[C@@H](CCCCN)C(=O)N[C@@H](CC(C)C)C(=O)N2 [compound 72] | 6.62 | 7.22
3 | CCCC[C@H](NC(=O)CNC(=O)[C@@H](N)CC(N)=O)C(=O)N[C@H]1CSSC[C@@H](C(N)=O)NC(=O)[C@@H]2C[C@@H](O)CN2C(=O)[C@H](Cc2c[nH]cn2)NC(=O)[C@@H]2CSSC[C@H](NC1=O)C(=O)NCC(=O)N[C@@H](Cc1ccc(OC)cc1)C(=O)N[C@@H](CCCCN)C(=O)N[C@@H](CC(C)C)C(=O)N2 [compound 74] | 6.60 | 6.67
4 | COc1ccc(C[C@@H]2NC(=O)CNC(=O)[C@@H]3CSSC[C@H](NC(=O)[C@H](CC(C)C)NC(=O)[C@H](CCCCN)NC2=O)C(=O)N[C@@H](Cc2c[nH]cn2)C(=O)N2C[C@H](O)C[C@H]2C(=O)N[C@H](C(N)=O)CSSC[C@H](NC(=O)[C@@H](NC(=O)CNC(=O)[C@H](N)CCCNC(=N)N)C(C)C)C(=O)N3)cc1 [compound 77] | 6.56 | 6.91
5 | COc1ccc(C[C@@H]2NC(=O)CNC(=O)[C@@H]3CSSC[C@H](NC(=O)[C@H](CC(C)C)NC(=O)[C@H](CCCCN)NC2=O)C(=O)N[C@@H](Cc2c[nH]cn2)C(=O)N2C[C@H](O)C[C@H]2C(=O)N[C@H](C(N)=O)CSSC[C@H](NC(=O)[C@@H](NC(=O)CNC(=O)C[C@@H](N)CCCCN)C(C)C)C(=O)N3)cc1 [compound 79] | 6.56 | 7.11
6 | CCCC[C@H](NC(=O)CNC(=O)[C@@H](N)CC(N)=O)C(=O)N[C@H]1CSSC[C@@H](C(N)=O)NC(=O)[C@@H]2C[C@@H](O)CN2C(=O)[C@H](Cc2c[nH]cn2)NC(=O)[C@@H]2CSSC[C@H](NC1=O)C(=O)NCC(=O)N[C@@H](Cc1ccc(O)cc1)C(=O)N[C@@H](CCCCN)C(=O)N[C@@H](CCC(C)C)C(=O)N2 [compound 80] | 6.55 | 6.87
7 | COc1ccc(C[C@@H]2NC(=O)CNC(=O)[C@@H]3CSSC[C@H](NC(=O)[C@H](CC(C)C)NC(=O)[C@H](CCCCN)NC2=O)C(=O)N[C@@H](Cc2c[nH]cn2)C(=O)N2CCC[C@H]2C(=O)N[C@H](C(N)=O)CSSC[C@H](NC(=O)[C@@H](NC(=O)CNC(=O)[C@H](CC(N)=O)NC(=O)[C@@H](N)Cc2ccc(O)cc2)C(C)C)C(=O)N3)cc1 [compound 86] | 6.50 | 6.96
8 | CC(C)C[C@@H]1NC(=O)[C@H](CCCCN)NC(=O)[C@H](Cc2ccc(O)cc2)NC(=O)CNC(=O)[C@@H]2CSSC[C@H](NC1=O)C(=O)N[C@@H](Cc1c[nH]cn1)C(=O)N1C[C@H](O)C[C@H]1C(=O)N[C@H](C(N)=O)CSSC[C@H](NC(=O)[C@@H](NC(=O)CNC(=O)[C@H](CC(N)=O)NC(=O)[C@@H](N)Cc1ccc(O)cc1)C(C)C)C(=O)N2 [compound 88] | 6.48 | 6.87
9 | CCCC[C@H](NC(=O)CNC(=O)[C@@H](N)CCCN)C(=O)N[C@H]1CSSC[C@@H](C(N)=O)NC(=O)[C@@H]2C[C@@H](O)CN2C(=O)[C@H](Cc2c[nH]cn2)NC(=O)[C@@H]2CSSC[C@H](NC1=O)C(=O)NCC(=O)N[C@@H](Cc1ccc(O)cc1)C(=O)N[C@@H](CCCCN)C(=O)N[C@@H](CC(C)C)C(=O)N2 [compound 96] | 6.33 | 6.54
10 | CC(C)C[C@@H]1NC(=O)[C@H](CCCCN)NC(=O)[C@H](Cc2ccc(O)cc2)NC(=O)CNC(=O)[C@@H]2CSSC[C@H](NC1=O)C(=O)N[C@@H](Cc1c[nH]cn1)C(=O)N1C[C@H](O)C[C@H]1C(=O)N[C@H](C(N)=O)CSSC[C@H](NC(=O)[C@@H](NC(=O)CNC(=O)[C@H](N)CCCNC(=N)N)C(C)C)C(=O)N2 [compound 103] | 6.15 | 6.50
11 | CCCC[C@H](N)C(=O)NCC(=O)N[C@H](C(=O)N[C@H]1CSSC[C@@H](C(N)=O)NC(=O)[C@@H]2C[C@@H](O)CN2C(=O)[C@H](Cc2c[nH]cn2)NC(=O)[C@@H]2CSSC[C@H](NC1=O)C(=O)NCC(=O)N[C@@H](Cc1ccc(OC)cc1)C(=O)N[C@@H](CCCCN)C(=O)N[C@@H](CC(C)C)C(=O)N2)C(C)C [compound 107] | 6.08 | 6.66
12 | CC(C)C[C@H](NC(=O)CNC(=O)[C@@H](N)CC(N)=O)C(=O)N[C@H]1CSSC[C@@H](C(N)=O)NC(=O)[C@@H]2C[C@@H](O)CN2C(=O)[C@H](Cc2c[nH]cn2)NC(=O)[C@@H]2CSSC[C@H](NC1=O)C(=O)NCC(=O)N[C@@H](Cc1ccc(O)cc1)C(=O)N[C@@H](CCCCN)C(=O)N[C@@H](CC(C)C)C(=O)N2 [compound 115] | 5.95 | 6.61
13 | CCCC[C@H](N)C(=O)NCC(=O)N[C@H](C(=O)N[C@H]1CSSC[C@@H](C(N)=O)NC(=O)[C@@H]2C[C@@H](O)CN2C(=O)[C@H](Cc2c[nH]cn2)NC(=O)[C@@H]2CSSC[C@H](NC1=O)C(=O)NCC(=O)N[C@@H](Cc1ccc(O)cc1)C(=O)N[C@@H](CCCCN)C(=O)N[C@@H](CC(C)C)C(=O)N2)C(C)C [compound 119] | 5.93 | 6.32
14 | CC(C)C[C@@H]1NC(=O)[C@H](CCCCN)NC(=O)[C@H](Cc2ccc(O)cc2)NC(=O)CNC(=O)[C@@H]2CSSC[C@H](NC1=O)C(=O)N[C@@H](Cc1c[nH]cn1)C(=O)N1C[C@H](O)C[C@H]1C(=O)N[C@H](C(N)=O)CSSC[C@H](NC(=O)[C@@H](NC(=O)CNC(=O)[C@H](N)CCCCN)C(C)C)C(=O)N2 [compound 121] | 5.88 | 6.34
15 | COc1ccc(C[C@@H]2NC(=O)CNC(=O)[C@@H]3CSSC[C@H](NC(=O)[C@H](CC(C)C)NC(=O)[C@H](CCCCN)NC2=O)C(=O)N[C@@H](Cc2c[nH]cn2)C(=O)N2C[C@H](O)C[C@H]2C(=O)N[C@H](C(N)=O)CSSC[C@H](NC(=O)[C@@H](NC(=O)CNC(=O)[C@@H](N)CC(N)=O)C(C)C)C(=O)N3)cc1 [compound 123] | 5.87 | 6.45
16 | CCCC[C@@H]1NC(=O)[C@H](CCCCN)NC(=O)[C@H](Cc2ccc(O)cc2)NC(=O)CNC(=O)[C@@H]2CSSC[C@H](NC1=O)C(=O)N[C@@H](Cc1c[nH]cn1)C(=O)N1C[C@H](O)C[C@H]1C(=O)N[C@H](C(N)=O)CSSC[C@H](NC(=O)[C@@H](NC(=O)CNC(=O)[C@@H](N)CC(N)=O)C(C)C)C(=O)N2 [compound 126] | 5.81 | 6.32
17 | CC(C)C[C@@H]1NC(=O)[C@H](CCCCN)NC(=O)[C@H](Cc2ccc(O)cc2)NC(=O)CNC(=O)[C@@H]2CSSC[C@H](NC1=O)C(=O)N[C@@H](Cc1c[nH]cn1)C(=O)N1C[C@H](O)C[C@H]1C(=O)N[C@H](C(N)=O)CSSC[C@H](NC(=O)[C@@H](NC(=O)CNC(=O)[C@@H](N)CCCCN(C)C)C(C)C)C(=O)N2 [compound 127] | 5.81 | 6.46
18 | CC(C)C[C@@H]1NC(=O)[C@H](CCCCN)NC(=O)[C@H](Cc2ccc(O)cc2)NC(=O)CNC(=O)[C@@H]2CSSC[C@H](NC1=O)C(=O)N[C@@H](Cc1c[nH]cn1)C(=O)N1C[C@H](O)C[C@H]1C(=O)N[C@H](C(N)=O)CSSC[C@H](NC(=O)[C@@H](NC(=O)CNC(=O)[C@@H](N)Cc1ccccc1)C(C)C)C(=O)N2 [compound 133] | 5.74 | 6.30
19 | CC(C)C[C@@H]1NC(=O)[C@H](CCCCN)NC(=O)[C@H](Cc2ccc(O)cc2)NC(=O)CNC(=O)[C@@H]2CSSC[C@H](NC1=O)C(=O)N[C@@H](Cc1c[nH]cn1)C(=O)N1C[C@H](O)C[C@H]1C(=O)N[C@H](C(N)=O)CSSC[C@H](NC(=O)[C@@H](NC(=O)CNC(=O)[C@@H](N)[C@@H](C)O)C(C)C)C(=O)N2 [compound 135] | 5.71 | 6.31
20 | CC(C)C[C@@H]1NC(=O)[C@H](CCCCN)NC(=O)[C@H](Cc2ccc(O)cc2)NC(=O)CNC(=O)[C@@H]2CSSC[C@H](NC1=O)C(=O)N[C@@H](Cc1c[nH]cn1)C(=O)N1C[C@H](O)C[C@H]1C(=O)N[C@H](C(N)=O)CSSC[C@H](NC(=O)[C@@H](NC(=O)CNC(=O)c1ccccc1N)C(C)C)C(=O)N2 [compound 136] | 5.68 | 6.34
21 | CC(C)C[C@@H]1NC(=O)[C@H](CCCCN)NC(=O)[C@H](Cc2ccc(O)cc2)NC(=O)CNC(=O)[C@@H]2CSSC[C@H](NC1=O)C(=O)N[C@@H](Cc1c[nH]cn1)C(=O)N1C[C@H](O)C[C@H]1C(=O)N[C@H](C(N)=O)CSSC[C@H](NC(=O)[C@@H](NC(=O)CNC(=O)[C@@H](N)CCCNC(N)=O)C(C)C)C(=O)N2 [compound 139] | 5.64 | 6.36
22 | COc1ccc(C[C@@H]2NC(=O)CNC(=O)[C@@H]3CSSC[C@H](NC(=O)[C@H](CC(C)C)NC(=O)[C@H](CCCCN)NC2=O)C(=O)N[C@@H](Cc2c[nH]cn2)C(=O)N2C[C@H](O)C[C@H]2C(=O)N[C@H](C(N)=O)CSSC[C@H](NC(=O)[C@@H](NC(=O)CNC(=O)[C@H](CC(N)=O)NC(=O)[C@@H]2CCC(=O)N2)C(C)C)C(=O)N3)cc1 [compound 140] | 5.64 | 6.58
23 | CC(C)C[C@@H]1NC(=O)[C@H](CCCCN)NC(=O)[C@H](Cc2ccc(O)cc2)NC(=O)CNC(=O)[C@@H]2CSSC[C@H](NC1=O)C(=O)N[C@@H](Cc1c[nH]cn1)C(=O)N1C[C@H](O)C[C@H]1C(=O)N[C@H](C(N)=O)CSSC[C@H](NC(=O)[C@H](C)NC(=O)CNC(=O)[C@@H](N)CC(N)=O)C(=O)N2 [compound 150] | 5.46 | 6.01
24 | CC(C)C[C@@H]1NC(=O)[C@H](CCCCN)NC(=O)[C@H](Cc2ccc(O)cc2)NC(=O)CNC(=O)[C@@H]2CSSC[C@H](NC1=O)C(=O)N[C@@H](Cc1c[nH]cn1)C(=O)N1C[C@H](O)C[C@H]1C(=O)N[C@H](C(N)=O)CSSC[C@H](NC(=O)[C@@H](NC(=O)CNC(=O)[C@H](CC(N)=O)NC(=O)[C@@H]1CCC(=O)N1)C(C)C)C(=O)N2 [compound 157] | 5.33 | 6.12

pIC50: −log10 of the molar value.
